Earlier results in patent publication US8420131B2, “Composition for obesity treatment” (priority 2011, dated 2013).

Settings: group treated with insulin

insulin
average weight gain: 6.5 kg
